## Fraction unbound values, as collected for the OPERA models

Source: data files of OPERA 2.9 (Mansouri et al.), github.com/kmansouri/OPERA.

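The OPERA project collected these measurements from public sources as training and test data for property models. The files give a single number for a compound and property, which may rest on several reports. Method and conditions are not stated for these values. Where a salt, mixture or single isomer is drawn, the source does not say that exactly this form was tested. Some upstream entries may be estimates or bounds without being marked so.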

The unbound fraction in human plasma runs from 0 (all bound) to 1 (all free).

SMILES | plasma fu
CC(CN1c2ccccc2Sc2ccccc21)N(C)C (stereo not given) | 0.105
CN(C)c1ccc(C(=C2C=CC(=[N+](C)C)C=C2)c2ccc(N(C)C)cc2)cc1.[Cl-] | 0.01384
CS(=O)(=O)c1ccc([C@@H](O)[C@@H](CF)NC(=O)C(Cl)Cl)cc1 | 0.7715
CC1(C)Cc2cccc(O)c2O1 | 0.364
Cc1cn([C@H]2C=C[C@@H](CO)O2)c(=O)[nH]c1=O | 0.9933
Oc1ccc(C2CNCCc3c2cc(O)c(O)c3Cl)cc1 (stereo not given) | 0.12
O=C(O)Cn1c(=O)n(Cc2ccc(Br)cc2F)c(=O)c2ccc(Cl)cc21 | 0.0091
CN1[C@@H]2CC[C@H]1C[C@@H](OC(=O)c1c[nH]c3ccccc13)C2 | 0.3
OC(CNCC(O)C1CCc2cc(F)ccc2O1)C1CCc2cc(F)ccc2O1 (stereo not given) | 0.02
Cc1cccc(C)c1NC(=O)NCCCNC(C)C | 0.86
Oc1ccc(Nc2ccccc2)cc1 | 0.0582
CN(C)c1ccc(C(=N)c2ccc(N(C)C)cc2)cc1.Cl | 0.107
CCN[C@H]1C[C@H](C)S(=O)(=O)c2sc(S(N)(=O)=O)cc21 | 0.7
C=CCOC(Cn1ccnc1)c1ccc(Cl)cc1Cl (stereo not given) | 0.02993
CC[C@@H]1C(=O)OC[C@@H]1Cc1cncn1C | 0.99
CN(C)CCc1c[nH]c2ccc(CS(=O)(=O)N3CCCC3)cc12 | 0.6133
CC(CN(C)C)CN1c2ccccc2Sc2ccccc21 (stereo not given) | 0.15
CC(=O)S[C@@H]1CC2=CC(=O)CC[C@]2(C)[C@H]2CC[C@@]3(C)[C@@H](CC[C@@]34CCC(=O)O4)[C@H]12 | 0.1201
Cc1cn([C@H]2CCCN([C@H](CC(C)(C)C)c3ccc(C(=O)O)c(Oc4cccc(Br)c4)c3)C2)c(=O)[nH]c1=O | 0.01686
CCc1ccc(CCOc2ccc(CC3SC(=O)NC3=O)cc2)nc1 (stereo not given) | 0.008916
Nc1ccc(O)c(C(=O)O)c1 | 0.43
COCCCOc1cc(C[C@@H](C[C@H](N)[C@@H](O)C[C@H](C(=O)NCC(C)(C)C(N)=O)C(C)C)C(C)C)ccc1OC | 0.505
N#C[C@@H]1CC(F)(F)CN1C(=O)CNC1CC2CCC(C1)N2c1ncccn1 (some centres not stated) | 0.702
O=C(c1ccc(O)cc1O)c1ccc(O)cc1O | 0.0354
CCCCNC(=N)NC(=N)N | 0.9
Cc1cccc(C)c1NC(=O)C1CCCCN1C (stereo not given) | 0.265
CN1CCC(=C2c3ccccc3CCn3c(C=O)cnc32)CC1 | 0.4905
COc1ccccc1N1CCN(CCCNc2cc(=O)n(C)c(=O)n2C)CC1 | 0.2
CO[C@@H]1[C@@H](OC(N)=O)[C@@H](O)[C@H](Oc2ccc3c(O)c(NC(=O)c4ccc(O)c(CC=C(C)C)c4)c(=O)oc3c2C)OC1(C)C | 0.1
CC(=O)N(CC(O)CO)c1c(I)c(C(=O)NCC(O)CO)c(I)c(C(=O)NCC(O)CO)c1I (stereo not given) | 0.9883
c1ccccc1 | 0.46
c1cc(CN2CCCNCCNCCCNCC2)ccc1CN1CCCNCCNCCCNCC1 | 0.42

The 3 lowest values of plasma fu among the entries above:

{"smiles": "CCc1ccc(CCOc2ccc(CC3SC(=O)NC3=O)cc2)nc1", "stereo": "stereo not given", "plasma fu": "0.008916"}
{"smiles": "O=C(O)Cn1c(=O)n(Cc2ccc(Br)cc2F)c(=O)c2ccc(Cl)cc21", "plasma fu": "0.0091"}
{"smiles": "CN(C)c1ccc(C(=C2C=CC(=[N+](C)C)C=C2)c2ccc(N(C)C)cc2)cc1.[Cl-]", "plasma fu": "0.01384"}